# The list is not random: actives were taken first. Their share in the collection is about 2.3%.
# A549 viability = counter-screen for Nrf2 inhibitors: cytotoxicity in A549 cells; A549 ARE-Fluc cells, CellTiter-Fluor viability, 18-24 h; Potency, µM (highest dose often 46 µM), inactives show at the top dose activity change, negative = cytotoxicity, most hits filed as inhibitors; hit rate 0.16% among 390,000; also: potency is read from the fitted curve at half-maximal effect; % is scaled to controls: 0 for no effect and ±100 for the full control effect
#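 A549 ARE_Fluc cells in 5% FBS OPTI-MEM were exposed to compounds in concentration-response for 18-24 h at 37 deg C. Viability was read by CellTiter-Fluor fluorescence (Ex 405/Em 525) after 30 min, before the luciferase read.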
# miR-21 FLuc = miR-21 reporter, rising signal | HeLa miR-21 FLuc reporter, luciferase, 48 h | Potency, µM (top dose mostly 38.3 µM), inactives show at the top dose reporter change, positive = more light | 340,000 tested, under 10 active | AID 2288; active = well fitted rising curve with a large enough effect; inconclusive = small, poorly fitted or top-dose-only effect; inactive = no such curve, though single readings can be large or run the other way;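 further: % of control where 0% means no effect; miR-21 action dims this reporter so a rising signal means less miR-21 action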
#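 Luminescence from a firefly luciferase reporter carrying a miR-21 binding site downstream, stably expressed under a CMV promoter in HeLa cells that make miR-21 endogenously, reports miRNA modulation after 48 h compound exposure up to approximately 40uM final.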
# Glioma ERSR ind = inducers of ER stress response in human glioma cells. Potency, µM, for inactives: top-dose activation, usual class: activators. U87-MG GRP78 promoter luciferase reporter, 16 h. AID 602332. hit rate 0.02% among 420,000; also: potency is read from the fitted curve at half-maximal effect; series mostly up to about 76 µM; % of control where 0% means no effect; nearly all actives have a fitted effect of over 35% in size
#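 Stably transfected U87-MG human glioma cells carrying a GRP78-based luminescent sensor were seeded at 1000 cells/well, pin-dosed with compounds and incubated 16 h. Luciferase reagent was then added, and end-point luminescence was read after 10 min at room temperature.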
# Nrf2 block = inhibitors of Nrf2 signaling | AID 504444 | A549 ARE-Fluc reporter, luciferase luminescence, 18-24 h | Potency, µM (doses to about 46 µM), for inactives: top-dose activity change, negative = inhibition, usual class: inhibitors | hit rate 2.1% among 360,000; also: potency is read from the fitted curve at half-maximal effect; % is scaled to controls: 0 for no effect and ±100 for the full control effect; nearly all actives have a fitted effect of over 60% in size
#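 In this cell-based qHTS, ARE-driven firefly luciferase in A549 cells reports Nrf2 activity; the luminescent signal after BugLite lysis is the measured value, with a prior CellTiter-Fluor read for cell health.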
# Mito fusion act = inhibitors of mitochondrial division or activators of mitochondrial fusion | S. cerevisiae fusion-defective mutant growth rescue, CellTiterGlo 48 h | Potency, µM (highest dose often 46.1 µM), for inactives: at the top dose growth rescue (activation), hits mostly activators | hit rate 0.23% among 320,000; also: potency is read from the fitted curve at half-maximal effect; % of control where 0% means no effect; nearly all actives have a fitted effect of over 45% in size
#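 Read-out: ATP-based luminescence (CellTiterGlo, 10 min ambient) reporting growth of fusion-defective ts yeast after 48 hours at 37C on glycerol/ethanol YPEG medium in the presence of compound.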
# Nrf2 ARE act = activators of Nrf2 (ARE) signaling; hit rate 0.31% among 410,000; AREc32 ARE-luciferase reporter (MCF7-derived line), luminescence, 24 h; AID 624171; Potency, µM (titrated, usually from 46.1 µM), inactives show top-dose activation, hits mostly activators; also: potency is read from the fitted curve at half-maximal effect; % of control where 0% means no effect; nearly all actives have a fitted effect of over 65% in size
#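 Quantitative high-throughput format: AREc32 reporter cells, 1000 per well, received compound by pin transfer and were incubated 24 hr at 37 deg C, 5% CO2, before Steady-Glo luminescence detection.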
# * = called active by the depositor; ? = inconclusive; nt = not tested or not shown. Calls follow the shape of the dose curve; as a rule, active = well fitted curve in the direction sought with a large enough effect; inconclusive = small, poorly fitted or top-dose-only effect, or another doubt; inactive = no such curve, though single readings can be large; an effect the other way counts as inactive or inconclusive.
SMILES,A549 viability,miR-21 FLuc,Glioma ERSR ind,Nrf2 block,Mito fusion act,Nrf2 ARE act
C=C1C(=O)O[C@H]2C1CC[C@@](C)(O)C13C=CC(C)(C21)C1(C3)C(=O)O[C@@H]2C3C(C)=CCC3[C@](C)(O)C[C@H](OC(C)=O)C21 (stereo partly drawn),-10%,11%,-6%,-28%,-5%,16µM*
CCN(CC)c1ccc(S(=O)(=O)Nc2cc(Cl)ccc2Cl)cc1NC(=S)NC(=O)C1CCCC1,-16%,1%,2%,18µM*,-6%,4%
CCN(CC)S(=O)(=O)c1ccc(Cl)c(NC(=S)NC(=O)C2CCCC2)c1,-19%,nt,-4%,8.2µM*,?,0%
COc1ccccc1NS(=O)(=O)c1ccc(Cl)c(NC(=S)NC(=O)C2CCCC2)c1,-4%,6%,-5%,?,?,3%
O=C(NC(=S)Nc1ccccc1Cl)C1CC1,3%,-42%,4%,?,-7%,3%
O=C(c1ccco1)N1CCC2(CC1)CCN(c1cccc(-c3ccccc3)c1)CC2,nt,nt,-3%,nt,nt,nt
CC1CNCCN1S(=O)(=O)c1cccc2cnccc12 (stereo not drawn),-7%,-3%,-5%,18µM*,-1%,7%
Cn1c(SCC(=O)Nc2ccccc2C(F)(F)F)nc2c(c1=O)SCC2,-1%,6%,-5%,?,2%,0%
N#Cc1ccc(-c2cccnc2)nc1SCc1ccc(Cl)c(Cl)c1,-15%,-12%,-6%,23µM*,23%,8%
CC(C)CNC(=O)NC(=O)COc1c(F)c(F)cc(F)c1F,10%,-10%,-1%,nt,-3%,-1%
CCN(Cc1ccccc1)C(=O)c1sc2nc3n(c(=O)c2c1C)CCCC3,-13%,18%,-1%,23µM*,nt,0%
CCc1cccc(NC(=O)CN2C(=O)CCc3cc(S(=O)(=O)N4CCOCC4)ccc32)c1,2%,-9%,-1%,nt,nt,8%
CCOc1ccc(N(C)C(CNS(=O)(=O)c2ccccc2)c2ccccc2)cc1 (stereo not drawn),-8%,?,nt,?,nt,4%
CCOC(=O)c1c(NC(NC(C)=O)C(Cl)(Cl)Cl)sc2c1CCCC2 (stereo not drawn),0%,11%,-5%,?,?,7%
COC(=O)c1c(NC(NC(=O)C(C)C)C(Cl)(Cl)Cl)sc2c1CCC2 (stereo not drawn),-1%,14%,-4%,18µM*,1%,3%
COC(=O)c1c(NC(NC(C)=O)C(Cl)(Cl)Cl)sc2c1CCCC2 (stereo not drawn),1%,13%,-10%,21µM*,21%,7%
O=c1c2[nH]c3ccccc3c2nc2n1CCCS2,1%,-41%,-2%,?,-1%,12%
O=C(NC(Nc1ncc(S(=O)(=O)c2ccc([N+](=O)[O-])cc2)s1)(C(F)(F)F)C(F)(F)F)c1ccc(Cl)cc1,?,?,-2%,5.8µM*,11%,?
CC(=O)Oc1ccc2ccccc2c1C(NC(=O)Cc1ccccc1)c1ccc(Cl)cc1 (stereo not drawn),?,23%,-3%,21µM*,2%,2%
COC(=O)c1cc(S(=O)(=O)N2CCOCC2)c(Cl)cc1N1CCOCC1,-4%,-11%,-4%,-18%,-3%,0%
COC(=O)c1cc(C)nc2c1C(=O)C(=O)C=C2N1CCOCC1,?,?,-14%,16µM*,-3%,-4%
COCC1CCCCN1C(=O)c1ccc2nc(Cc3ccc(OC)c(OC)c3)oc2c1 (stereo not drawn),-5%,1%,1%,?,-1%,0%
Cc1ccc(N2CCN(C(=O)c3nn(C)c4c3CS(=O)(=O)c3ccccc3-4)CC2)c(C)c1,-2%,-3%,-4%,0%,11µM*,0%
Cn1nc(C(=O)N2CCN(c3ccc(Cl)cc3)CC2)c2c1-c1ccccc1S(=O)(=O)C2,-4%,10%,-3%,?,21%,0%
Cc1ccc(Cl)cc1N1CCN(C(=O)c2nn(C)c3c2CS(=O)(=O)c2ccccc2-3)CC1,-1%,-3%,-2%,2%,nt,0%

# With a hit mark in Nrf2 ARE act, of those listed so far:
Molecule	miR-21 FLuc	Nrf2 block	Mito fusion act	Nrf2 ARE act
C=C1C(=O)O[C@H]2C1CC[C@@](C)(O)C13C=CC(C)(C21)C1(C3)C(=O)O[C@@H]2C3C(C)=CCC3[C@](C)(O)C[C@H](OC(C)=O)C21 (stereo partly drawn)	11%	-28%	-5%	16µM*

# 4 entries picked at random from those above:
SMILES,A549 viability,miR-21 FLuc,Glioma ERSR ind,Nrf2 block,Mito fusion act,Nrf2 ARE act
CC1CNCCN1S(=O)(=O)c1cccc2cnccc12 (stereo not drawn),-7%,-3%,-5%,18µM*,-1%,7%
Cn1nc(C(=O)N2CCN(c3ccc(Cl)cc3)CC2)c2c1-c1ccccc1S(=O)(=O)C2,-4%,10%,-3%,?,21%,0%
CCN(CC)c1ccc(S(=O)(=O)Nc2cc(Cl)ccc2Cl)cc1NC(=S)NC(=O)C1CCCC1,-16%,1%,2%,18µM*,-6%,4%
O=C(c1ccco1)N1CCC2(CC1)CCN(c1cccc(-c3ccccc3)c1)CC2,nt,nt,-3%,nt,nt,nt

# Next part:
SMILES,A549 viability,miR-21 FLuc,Glioma ERSR ind,Nrf2 block,Mito fusion act,Nrf2 ARE act
Cn1nc(C(=O)N2CCN(c3cccc(Cl)c3)CC2)c2c1-c1ccccc1S(=O)(=O)C2,3%,-1%,-5%,?,11µM*,-1%
CC(C)NC(=O)NC(=O)CN1C(=O)NC2(CCc3ccccc3C2)C1=O (stereo not drawn),-8%,1%,-2%,-5%,0%,-1%
CCOC(=O)C1CCCN(C(=O)c2ccc(NC(=O)CC3SC(N4CCCC4)=NC3=O)cc2)C1 (stereo not drawn),0%,nt,1%,22%,-3%,3%
O=C(CSc1nc2ccccc2c(=O)n1-c1ccccc1)NCc1ccc2c(c1)OCO2,-7%,-1%,-1%,2%,6%,-1%
O=C(CSc1nc2ccccc2n1CC(=O)N1CCCC1)NCc1ccc2c(c1)OCO2,0%,0%,-4%,-4%,2.8µM*,0%
O=C(N/N=C/c1ccc(OC(=O)c2ccccc2Cl)cc1)c1cc(O)cc(O)c1,1%,-7%,6%,6.5µM*,3%,0%
O=C(N/N=C/c1ccc(OC(=O)c2ccccc2Cl)cc1)c1ccccn1,1%,-30%,-3%,?,1%,1%
O=C(NNC(=O)c1ccc([N+](=O)[O-])o1)c1ccccc1,?,28%,?,nt,-6%,22µM*
O=C(Nc1nc2cc3c(cc2s1)OCCO3)c1cccc(N2C(=O)CCC2=O)c1,0%,-5%,-3%,-21%,-4%,3%
Cc1cc(C)c2sc(NC(=O)c3ccc([N+](=O)[O-])o3)nc2c1,-10%,3%,-1%,11%,-25%,7.9µM*
O=C(Nc1nc2ccccc2s1)c1ccc([N+](=O)[O-])o1,-5%,-13%,18%,?,8%,3.5µM*
CCN(CC)S(=O)(=O)c1cccc(C(=O)Nc2nc3cc4c(cc3s2)OCCO4)c1,?,?,-1%,15µM*,3%,0%
Cc1cc(C)c2nc(NC(=O)c3ccc([N+](=O)[O-])o3)sc2c1,-14%,3%,-2%,5%,2%,?
Cc1nn(CCCC(=O)Nc2ccccc2C(F)(F)F)c(=O)c2nn(-c3ccccc3)c(C)c12,1%,-7%,0%,?,nt,0%
CN(C)S(=O)(=O)c1ccc(Cl)c(NC(=O)COC(=O)C2CCCO2)c1 (stereo not drawn),19%,0%,-4%,0%,-1%,0%
